According to US20100028259A1, “USE OF ORGANIC CATION TRANSPORTERS FOR CANCER DIAGNOSIS AND THERAPY” (The Regents of the University of California, priority 2006, published 2010):

Tests used:
HEK-hOCT2 cells [1] = experiment: MTT drug sensitivity assay in HEK-hOCT2 cells; type: cell-based, human; settings: cimetidine 1.5 mM
Protocol: Cytotoxicity of the platinum-based compounds was measured by MTT (thiazolyl blue tetrazolium bromide) assay. Cells were seeded in 100 μl of the culture medium without any antibiotics in 96-well plates at a predetermined cell density. For HEK 293 cells, poly-D-lysine coated plates were used. […] For the OCT inhibitor studies, the inhibitors (i.e., disopyramide or cimetidine) were added to the medium at a specified concentration immediately before the addition of the platinum-based compounds. After incubation for a specified time period, the drug-containing medium was replaced with fresh, drug-free medium and the incubation was continued for a total of 72 hours (start from the addition of platinum-based compounds). Then, the MTT assay was performed similarly as described in Alley et al., Cancer Res., 48:589-601 (1988). […] The maximal cell growth was the cell growth in the medium without any platinum-based compounds; C is the concentration of the platinum-based compound, and γ is the slope factor.
(§1) Briefly, the cells were seeded in 96-well plates at a density of 5,000 cells/well for the transfected MDCK cells or 12,000 cells/well for the transfected HEK 293 cells. The platinum-based drugs were added on the following day. […] After incubation, the cell growth was determined by an MTT assay. Data are expressed as mean±SD from 3 to 6 independent experiments with each performed in quadruplicate. […]

MDCK-hOCT1 cells [2] = experiment: Cellular accumulation of platinum in MDCK-hOCT1 cells (ICP-MS); type: in vitro ADME, canine; settings: 2-hr exposure, 3 μM
Protocol: (§2) For the inhibitor studies, the incubation medium also contained disopyramide (150 μM). […] For the inhibitor studies, the incubation medium also contained cimetidine (1.5 mM). […] After drug exposure, the cells were washed with ice-cold PBS three times and harvested by scraping and centrifugation. The cell-associated platinum was determined by ICP-MS and normalized for protein content. Data are expressed as mean±SD from a single experiment performed in triplicate. Experiments were replicated for OCT1 and OCT2, and similar results were obtained.
(§3) The cellular accumulation of platinum was determined as described in Holzer et al., Mol. Pharmacol., 66:817-823 (2004) with some modifications. Briefly, the cells were grown in 100 mm×20 mm dishes in the culture medium without any antibiotics to over 90% confluence. For HEK 293 cells, poly-D-lysine coated dishes were used. For platinum accumulation, the cells were incubated in the culture medium containing the indicated concentrations of the platinum compounds at 37° C. in 5% CO2 for 2 hr unless specified. […] The platinum content was measured by inductively plasma coupled mass spectrometry (ICP-MS) in the Analytical Facility at the University of California at Santa Cruz (Santa Cruz, Calif.). […]

OCT1 = settings: wild-type and variants G401S, 420 del, S14F, R61c, G220V, V408M, G465R
HEK-hOCT2 cells [3] = experiment: Platinum-DNA adduct formation in HEK-hOCT2 cells; type: cell-based, human; settings: 2-hr exposure
Protocol: (§4) After incubation at 37° C. and 5% CO2 for 2 hours, the cells were washed with ice-cold PBS three times and harvested. The genomic DNA was isolated from the cells and the platinum content associated with DNA was determined by ICP-MS and normalized for DNA content. Data are expressed as mean±SD from a typical experiment performed in triplicate. Two independent experiments were conducted and similar results were obtained.
(§5) The platinum content associated with genomic DNA was determined as described in Samimi et al., Clin. Cancer Res., 10:4661-4669 (2004) with some modifications. Briefly, the cells were grown in 100 mm×20 mm dishes in the culture medium without any antibiotics to over 90% confluence. For HEK 293 cells, poly-D-lysine coated dishes were used. Then, the cells were incubated in the culture medium containing the specified concentrations of the platinum-based compounds at 37° C. in 5% CO2 for 2 hours (or 25 min as specified). In some experiments, phosphate buffer (PB: 1.06 mM KH2PO4, 2.97 mM Na2HPO4, pH 7.4) containing 155 mM NaCl (PB—Cl buffer) or 103 mM Na2SO4 (PB—SO4 buffer) was used instead of the culture medium as specified. For the OCT inhibitor study, the incubation medium (buffer) also contained disopyramide or cimetidine). […] The platinum content was analyzed using ICP-MS and the DNA content was measured by absorption spectroscopy.

MDCK-hOCT1 cells [4] = experiment: MTT drug sensitivity assay in MDCK-hOCT1 cells; type: cell-based, canine; settings: disopyramide 150 μM
Protocol: Cytotoxicity of the platinum-based compounds was measured by MTT (thiazolyl blue tetrazolium bromide) assay. Cells were seeded in 100 μl of the culture medium without any antibiotics in 96-well plates at a predetermined cell density. For HEK 293 cells, poly-D-lysine coated plates were used. […] For the OCT inhibitor studies, the inhibitors (i.e., disopyramide or cimetidine) were added to the medium at a specified concentration immediately before the addition of the platinum-based compounds. […]
as §1, with “cells.” for “cells. The platinum-based drugs were added on the following day.”
Briefly, MDCK cells were seeded at a density of 5,000 cells/well in 96-well plates and exposed to the test compounds for 7 hours on the following day. After incubation for a total of 72 hours, the cell growth was determined by an MTT assay. The data for carboplatin was taken from Table 1 and was not determined simultaneously with the other compounds. […] Data are expressed as mean±SD from six measurements, and each measurement was performed in quadruplicate.

HEK-MOCK cells [5] = experiment: Platinum-DNA adduct formation in HEK-MOCK cells; type: cell-based, human; settings: cimetidine 1.5 mM
Protocol: as §4, §5

MDCK-MOCK cells = experiment: Platinum-DNA adduct formation in MDCK-MOCK cells; type: cell-based, canine; settings: 2-hr exposure, oxaliplatin 10 μM, culture medium
Protocol: as §4
(§6) After incubation, the cells were washed with ice-cold PBS three times and harvested. Genomic DNA was isolated from the harvested cells and the DNA-associated platinum content was determined by ICP-MS and normalized for the DNA content. Data are expressed as mean±SD of three measurements.
as §5, with “specified).” for “specified). In some experiments, phosphate buffer (PB: 1.06 mM KH2PO4, 2.97 mM Na2HPO4, pH 7.4) containing 155 mM NaCl (PB—Cl buffer) or 103 mM Na2SO4 (PB—SO4 buffer) was used instead of the culture medium as specified. For the OCT inhibitor study, the incubation medium (buffer) also contained disopyramide or cimetidine).”

HEK-MOCK cells [6] = experiment: MTT drug sensitivity assay in HEK-MOCK cells (control of HEK-hOCT2); type: cell-based, human; settings: cimetidine 1.5 mM
Protocol: Cytotoxicity of the platinum-based compounds was measured by MTT (thiazolyl blue tetrazolium bromide) assay. Cells were seeded in 100 μl of the culture medium without any antibiotics in 96-well plates at a predetermined cell density. For HEK 293 cells, poly-D-lysine coated plates were used. After overnight incubation, the platinum-based compounds were then added to the culture medium to give the indicated final concentrations. For the OCT inhibitor studies, the inhibitors (i.e., disopyramide or cimetidine) were added to the medium at a specified concentration immediately before the addition of the platinum-based compounds. After incubation for a specified time period, the drug-containing medium was replaced with fresh, drug-free medium and the incubation was continued for a total of 72 hours (start from the addition of platinum-based compounds). Then, the MTT assay was performed similarly as described in Alley et al., Cancer Res., 48:589-601 (1988). […]
as §1, with “cells.” for “cells. The platinum-based drugs were added on the following day.”

MDCK-hOCT1 cells [7] = experiment: Platinum-DNA adduct formation in MDCK-hOCT1 cells; type: cell-based, canine
Protocol: as §4, §6
The platinum content associated with genomic DNA was determined as described in Samimi et al., Clin. Cancer Res., 10:4661-4669 (2004) with some modifications. Briefly, the cells were grown in 100 mm×20 mm dishes in the culture medium without any antibiotics to over 90% confluence. For HEK 293 cells, poly-D-lysine coated dishes were used. Then, the cells were incubated in the culture medium containing the specified concentrations of the platinum-based compounds at 37° C. in 5% CO2 for 2 hours (or 25 min as specified). In some experiments, phosphate buffer (PB: 1.06 mM KH2PO4, 2.97 mM Na2HPO4, pH 7.4) containing 155 mM NaCl (PB—Cl buffer) or 103 mM Na2SO4 (PB—SO4 buffer) was used instead of the culture medium as specified. For the OCT inhibitor study, the incubation medium (buffer) also contained disopyramide or cimetidine). If PB—Cl or PB—SO4 buffer was used, the cells were washed with the same buffer once before drug incubation. After incubation, the cells were washed with ice-cold PBS, scraped, and pelleted. Genomic DNA was isolated from the cell pellets using the Wizard® Genomic DNA Purification Kit (Promega, Madison, Wis.) following the manufacturer's instructions. Briefly, the cells were lysed with Nuclei Lysis Solution. After RNA digestion and protein precipitation, the lysates were centrifuged and the resulting supernatant was aliquoted. The genomic DNA prepared from two different aliquots of the supernatant was used for platinum and DNA content determination, respectively. For the determination of platinum, the DNA samples were treated with 70% nitric acid at 65° C. and diluted in the same way as described above. The platinum content was analyzed using ICP-MS and the DNA content was measured by absorption spectroscopy.

HEK-hOCT2 cells [8] = experiment: Cellular accumulation of platinum in HEK-hOCT2 cells (ICP-MS); type: in vitro ADME, human; settings: 2-hr exposure
Protocol: as §2, §3

O=C1[O][Pt]2([NH][C@@H]3CCCC[C@H]3[NH]2)[O]C1=O [oxaliplatin]
fold increase of IC50 by cimetidine in HEK-hOCT2 (HEK-hOCT2 cells [1]): 72 fold | fold higher platinum accumulation rate, MDCK-hOCT1 vs MDCK-MOCK (MDCK-hOCT1 cells [2]): 2.90 fold | response to oxaliplatin therapy by OCT1 genotype (OCT1): wild-type OCT1 and V408M OCT1 provide the best response | fold higher platinum-DNA adduct level, HEK-hOCT2 vs HEK-MOCK (HEK-hOCT2 cells [3]): 28.8 fold | fold increase of IC50 by disopyramide in MDCK-hOCT1 (MDCK-hOCT1 cells [4]): 6.01 fold | fold decrease of platinum-DNA adduct level by cimetidine in HEK-MOCK (HEK-MOCK cells [5]): 1.70 fold | rb (ratio of bound platinum atoms per nucleotide) in MDCK-MOCK (MDCK-MOCK cells): 3.63±0.33×10^−6 | fold increase of IC50 by cimetidine in HEK-MOCK (HEK-MOCK cells [6]): 3.18 fold | fold higher DNA-associated platinum level, MDCK-hOCT1 vs MDCK-MOCK (MDCK-hOCT1 cells [7]; 20 μM, PB—Cl, 25 min): 2.74 fold | fold greater platinum-DNA adduct level, MDCK-hOCT1 vs MDCK-MOCK (MDCK-hOCT1 cells [7]; 2-hr exposure, culture medium): 4.15 fold | rb (ratio of bound platinum atoms per nucleotide) in MDCK-hOCT1 (MDCK-hOCT1 cells [7]; 2-hr exposure, oxaliplatin 10 μM, culture medium): 1.51±0.04×10^−5 | fold decrease of platinum-DNA adduct formation by disopyramide in MDCK-hOCT1 (MDCK-hOCT1 cells [7]; disopyramide 150 μM): 2.11 fold | fold higher platinum accumulation rate, HEK-hOCT2 vs HEK-MOCK (HEK-hOCT2 cells [8]): 21.7 fold
